Patent publication US20060057069A1, “Detection of protein expression in vivo using fluorescent puromycin conjugates” (CALIFORNIA INSTITUTE OF TECHNOLOGY, priority 2004, published 2006)

Assays:
dopamine D1/D5 receptor = experiment: GFP protein synthesis reporter imaging in cultured hippocampal neurons; type: cell-based, rat
[1] = system: cultured hippocampal neurons; experiment: F2P (fluorescein-dC-puromycin) reporter of endogenous protein synthesis in cultured hippocampal neurons; type: cell-based, rat; details: SKF in the presence of F2P, 15 minutes; n=14
Description: Dissociated hippocampal neurons were prepared and maintained as previously described. Briefly, hippocampi from postnatal day 2 Sprague-Dawley rat pups were enzymatically and mechanically dissociated and plated into poly-lysine coated glass-bottom petri dishes (Mattek). Neurons were maintained for 14-21 days at 37° C. in growth medium (Neurobasal A supplemented with B27 and Glutamax-1, Invitrogen).
All images were acquired with an Olympus IX-70 confocal laser scanning microscope running Fluoview software (Olympus America, Inc). GFP, Alexa 488, and F2P were excited with the 488 nm line of an argon ion laser, and emitted light was collected between 510 and 550 nm. Alexa 568 was excited with the 568 nm line of a krypton ion laser, and emitted light was collected above 600 nm. In experiments where two channels were acquired simultaneously, settings were chosen to ensure no signal bleed-through between channels. For between-dish comparisons on a given day, all images were acquired at the same settings, without knowledge of the experimental condition during image acquisition. […] To facilitate the analysis of fluorescence signal as a function of distance from the soma, dendrites were linearized and extracted from the full-frame image using a modified version of the Straighten plugin for ImageJ. […]

## Oc1cc2c(cc1O)C(c1ccccc1)CNCC2 (stereo not drawn) [SKF-38393]
Dopamine D1/D5 receptor; SKF 100 μM for 15 min bath application, soma and dendrites
  protein synthesis (GFP reporter signal) relative to control neurons: significantly enhanced protein synthesis
Dopamine D1/D5 receptor; brief (15 min) exposure, 60 minute imaging
  time-lapse GFP signal in dendrites: increased the GFP signal in dendrites within 60 minutes
[1]
  mean percent increase in F2P signal relative to control: 91.3 ± 11.2%
